By UniProt entry, the sequences of proteins in these tests, tags left out. Residues count along the entry.
UniProt P05067, 18-770 limits assumed: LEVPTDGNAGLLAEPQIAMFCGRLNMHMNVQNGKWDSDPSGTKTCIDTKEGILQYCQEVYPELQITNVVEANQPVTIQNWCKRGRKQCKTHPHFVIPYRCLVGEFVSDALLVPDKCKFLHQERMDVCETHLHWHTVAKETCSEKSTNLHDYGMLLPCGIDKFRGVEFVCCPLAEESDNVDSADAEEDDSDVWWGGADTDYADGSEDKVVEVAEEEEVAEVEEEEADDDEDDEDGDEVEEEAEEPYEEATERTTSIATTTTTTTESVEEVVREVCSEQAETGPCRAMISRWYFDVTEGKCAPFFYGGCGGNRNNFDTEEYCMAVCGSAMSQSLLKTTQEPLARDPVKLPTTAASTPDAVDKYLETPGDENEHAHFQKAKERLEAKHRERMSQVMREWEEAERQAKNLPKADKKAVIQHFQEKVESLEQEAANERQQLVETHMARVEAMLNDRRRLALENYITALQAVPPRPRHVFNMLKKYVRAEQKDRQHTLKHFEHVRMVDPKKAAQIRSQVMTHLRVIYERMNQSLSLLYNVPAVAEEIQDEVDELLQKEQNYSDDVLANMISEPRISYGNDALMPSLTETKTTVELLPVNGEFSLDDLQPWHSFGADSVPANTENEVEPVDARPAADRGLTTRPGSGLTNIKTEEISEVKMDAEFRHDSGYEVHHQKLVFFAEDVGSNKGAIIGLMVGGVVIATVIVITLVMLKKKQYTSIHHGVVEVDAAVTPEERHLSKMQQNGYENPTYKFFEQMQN

According to ChEMBL document CHEMBL3886962, “Spirocyclic sulfones as gamma secretase inhibitors” (2016):

Biological target: Amyloid-beta precursor protein (Homo sapiens, UniProt P05067)
Assay: Electrochemiluminescence (ECL)-Based Immunoassay: To measure γ-secretase activity, membranes were incubated at 37° C. for 1 h in 50 μL of buffer containing 20 mM Hepes (pH 7.0) and 2 mM EDTA. At the end of the incubation, Aβ 40 and Aβ 42 were measured using an electrochemiluminescence (ECL)-based immunoassay. Aβ 40 was identified with antibody pairs TAG-G2-10 and biotin-W02, while Aβ 42 was identi

O=S(=O)(c1ccc(Cl)cc1)[C@@]12CCCC3(COC3)[C@@H]1COc1c(F)ccc(F)c12
IC50: 10.1 nM
